# Test results from ChEMBL document CHEMBL4732155 (Eur J Med Chem, 2021).
# Legend:
# Saccharomyces cerevisiae = assay: Selectivity ratio of IC50 for inhibition of yeast Cdc48 T532C mutant to IC50 for inhibition of yeast Cdc48
# [1] = Selectivity ratio of IC50 for hamster NSF to IC50 for His6-tagged p97 (unknown origin) expressed in Escherichia coli BL21 (DE3)
# Homo sapiens [2] = species on record: Homo sapiens; assay: Selectivity ratio of IC50 for inhibition of His6-tagged p97 C522A mutant (unknown origin) expressed in Escherichia coli BL21 (DE3) to IC50 for inhibition of His6-tagged p97 (unknown origin) expressed in Escherichia coli BL21 (DE3)
# Homo sapiens [3] = species on record: Homo sapiens; assay: Selectivity ratio of IC50 for inhibition of His6-tagged p97 C522T mutant (unknown origin) expressed in Escherichia coli BL21 (DE3) to IC50 for inhibition of His6-tagged p97 (unknown origin) expressed in Escherichia coli BL21 (DE3)
compound,measurement,setting,value
C=CC(=O)Nc1ncnc2c1c(-c1ccccc1)nn2C(C)(C)C,Selectivity ratio,Saccharomyces cerevisiae,30
same,Selectivity ratio,[1],> 100
same,Selectivity ratio,Homo sapiens [2],> 100
same,Selectivity ratio,Homo sapiens [3],> 100
